According to patent US20070060610A1, “Methods and pharmaceutical formulations for increasing bioavailability” (priority 2005, published 2007):

System: Caco-2 monolayers
Conditions: FIG. 1A; 45 minute preincubation; 120 minute time point; Rhodamine 123 13 μM; TPGS 1000 33 μM on both apical and basolateral sides

Substance: d-α-tocopheryl polyethylene glycol succinate [TPGS 1000]
- increase in Papp (absorptive transport, Ap→Bl) of Rhodamine 123 compared to that achieved without TPGS 1000 pre-exposure: greater than two-fold
